Molecular target: BTK wild-type kinase (Homo sapiens (Human), UniProt Q06187)
Experiment: BTK kinase activity inhibition test in vitro (Caliper EZ Reader)
Format: biochemical
Conditions: read-out: BTK IC50

Sequences of proteins named here, by UniProt entry; tags and fusion partners are left off.
UniProt Q06187, whole entry: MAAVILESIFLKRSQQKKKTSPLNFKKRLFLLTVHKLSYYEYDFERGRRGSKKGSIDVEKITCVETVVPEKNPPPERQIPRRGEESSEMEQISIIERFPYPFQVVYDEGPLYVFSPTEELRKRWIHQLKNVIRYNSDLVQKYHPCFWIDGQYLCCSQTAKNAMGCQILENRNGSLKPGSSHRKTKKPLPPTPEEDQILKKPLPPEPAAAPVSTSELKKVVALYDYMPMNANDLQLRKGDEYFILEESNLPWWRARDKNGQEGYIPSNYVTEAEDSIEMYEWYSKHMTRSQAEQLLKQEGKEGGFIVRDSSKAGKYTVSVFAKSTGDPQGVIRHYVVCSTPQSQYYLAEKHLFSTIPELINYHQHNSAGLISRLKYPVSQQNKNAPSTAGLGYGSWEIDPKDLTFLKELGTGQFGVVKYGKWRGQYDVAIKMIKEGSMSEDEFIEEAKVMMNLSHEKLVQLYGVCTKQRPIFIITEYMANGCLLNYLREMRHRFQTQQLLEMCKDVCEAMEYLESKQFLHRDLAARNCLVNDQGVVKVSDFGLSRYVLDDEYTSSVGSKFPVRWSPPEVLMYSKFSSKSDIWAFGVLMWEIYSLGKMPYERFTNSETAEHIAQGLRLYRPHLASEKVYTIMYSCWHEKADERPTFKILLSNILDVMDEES

IC50: 20 to 100 nM
Compound: Nc1nccn2c(C3CCC(CO)OC3)nc(-c3ccc(C(=O)Nc4ccccn4)cc3)c12 (single isomer, unassigned)

Reference: US20230364079A1, “COMPOUND AS BRAIN-PERMEABLE BTK OR HER2 INHIBITOR, PREPARATION METHOD THEREFOR, AND USE THEREOF” (CHENGDU HYPERWAY PHARMACEUTICALS CO., LTD., priority 2020, published 2023)
